The values that follow come from patent US11667628B2, “Compounds for imaging tau proteins that accumulate in brain” (National Institutes for Quantum and Radiological Science …, priority 2012, dated 2023).

The chains behind the UniProt entries cited, without tags or fusion partners. Where a name states a change or a piece, a line headed by the entry shows the natural chain unless it says otherwise.
UniProt P10636: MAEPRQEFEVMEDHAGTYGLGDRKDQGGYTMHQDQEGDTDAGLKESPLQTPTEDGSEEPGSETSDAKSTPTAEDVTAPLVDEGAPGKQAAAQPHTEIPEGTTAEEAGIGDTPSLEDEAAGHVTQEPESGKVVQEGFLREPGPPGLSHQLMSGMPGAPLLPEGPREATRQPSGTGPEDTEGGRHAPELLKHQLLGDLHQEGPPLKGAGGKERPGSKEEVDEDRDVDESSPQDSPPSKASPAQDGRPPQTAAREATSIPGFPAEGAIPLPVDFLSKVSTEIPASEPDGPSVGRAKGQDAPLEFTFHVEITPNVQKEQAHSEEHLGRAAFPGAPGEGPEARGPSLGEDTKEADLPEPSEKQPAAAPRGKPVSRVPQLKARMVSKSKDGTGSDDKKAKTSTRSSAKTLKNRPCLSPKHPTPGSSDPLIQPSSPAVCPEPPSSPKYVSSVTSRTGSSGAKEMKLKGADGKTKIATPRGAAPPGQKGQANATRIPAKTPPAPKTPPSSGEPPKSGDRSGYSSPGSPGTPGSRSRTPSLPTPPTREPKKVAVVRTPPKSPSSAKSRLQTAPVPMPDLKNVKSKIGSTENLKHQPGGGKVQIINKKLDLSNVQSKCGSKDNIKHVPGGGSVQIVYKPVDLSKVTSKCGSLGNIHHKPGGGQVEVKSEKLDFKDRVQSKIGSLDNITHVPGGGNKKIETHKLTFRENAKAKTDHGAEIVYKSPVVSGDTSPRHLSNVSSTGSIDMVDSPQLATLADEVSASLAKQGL

For data set [1], the target named is tau accumulations in the PS19 mice (Homo sapiens, UniProt P10636, P618S). The data set is described as follows: Ex vivo fluorescence microscopy and multi-photon imaging after intravenous administration. The conditions noted are these: 60 minutes; for 2-photon labeling of spinal cord block of PS19 mice, ex vivo sample: 1 mg/kg intravenous.
Data set [2] concerns the target tau inclusions in spinal cord of PS19 mice (Homo sapiens, UniProt P10636, P618S). Briefly: In vivo 2-photon laser scanning fluorescence microscopic examination.
Data set [3] addresses tau pathologies of PS19 mice (Homo sapiens, UniProt P10636, P618S). Briefly: In vivo PET imaging of mice. The conditions noted are these: for PET visualization of tau pathologies of PS19 mice: 60 to 90 minutes after administration.
Data set [4] concerns the target tau accumulations in PS19 mice (Homo sapiens, UniProt P10636, P618S). Briefly: Non-invasive near infrared fluorescence imaging of tau accumulations in living mice.
Data set [5] has as its target tau inclusions in brain stem and spinal cord of PS19 mice (Homo sapiens, UniProt P10636, P618S). The data set is described as follows: Ex vivo autoradiography of mice. The conditions noted are these: for radiolabeling of tau inclusions in brain stem and spinal cord of PS19 mice: caudal vein, 45 minutes after injection.
The target in data set [6] is fibrous aggregate pathologies in the brain stems of PS19 mice (Homo sapiens, UniProt P10636, P618S). The data set is described as follows: In vitro autoradiography, mouse brain sections. The conditions noted are these: for radiolabeling of fibrous aggregate pathologies, mouse brain stems: up to 1 nM radioligand.

Where only a bound is given, the exact number is not on record here.

With `CNc1ccc(/C=C/C=C/c2nc3cc(O)c(O)cc3s2)cn1`, in data set [1], the “2-photon labeling of spinal cord block of PS19 mice, ex vivo sample” value is on record as “labelled”.

Consider `CNc1ccc(/C=C/C=C/c2nc3ccc(O)cc3s2)cc1`, for which the “2-photon labeling of spinal cord block of PS19 mice, ex vivo sample” value in data set [1] is on record as “labelled”.

As for `CNc1ccc(/C=C/C=C/c2nc3ccc(O)cc3s2)cn1`, in data set [2] (1 mg/kg intravenous), the “blood brain barrier passage” value is given as “passes the blood brain barrier”, the “time of spread of signals from blood vessels to spinal cord tissues” value is at most 5 min and the “time to appearance of signals in blood vessels after injection” value was at most 3 s. Also, the “binding to tau inclusions in PS19 mice” value in data set [2] (1 mg/kg intravenous, no such signals in WT mice) was “clear binding to tau inclusions”. In addition, the “time to disappearance from WT mice” value in data set [2] (FIG. 5I, after injection) is at most 300 s.

Consider “2-((1E, 3E)-4-(4-(dimethylamino)phenyl)buta-1, 3-dienyl)-3-ethyl-6-[^11C] methoxybenzo[d]thiazole-3-ium”, for which the “PET retention in brain stems, PS mice compared to WT mice” value in data set [3] (30 to 90 minutes after injection) was “held in the brain stems of the PS mice”.

For the compound `CC[n+]1c(/C=C/C=C/c2ccc(N(C)C)cc2)sc2ccccc21` [PBB5, 2-((1E,3E)-4-(4-(dimethylamino)phenyl)buta-1,3-dienyl)-3-ethylbenzo[d] thiazole-3-ium], the “fluorescence intensity in brain stem and spinal cord ROIs, PS19 versus WT mice” value in data set [4] (0.1 mg/kg intravenous, 30 minutes) is reported as “exceed the intensity in the WT mice”. Besides, in data set [4] (0.1 mg/kg intravenous, 240 minutes later), the “signals in brain stems and spinal cords of PS19 mice” value is on record as “signals were observed”. In addition, the “fluorescence duration in BS and SC ROIs of tau Tg mice compared to WT” value in data set [4] (120 minutes after intravenous injection, 11-month-old mice) is “extended durations of fluorescence”. In addition, the “ratios of fluorescence intensity in BS and SC ROIs to FC ROI” value in data set [4] (WT n=7, PS19 n=7, p<0.001 genotype) is “significantly bigger in the WT mice than in the PS19 mice”.

`[11CH3]Nc1ccc(/C=C/C=C/c2nc3ccc(O)cc3s2)cc1` [[^11C]PBB2, 2-((1E,3E)-4-(4-([^11C]methylamino)phenyl)buta-1,3-dienyl)benz[d]thiazole-6-ol]: the “radiolabeling of tau inclusions in brain stem and spinal cord of PS19 mice” value in data set [5] is given as “radio-labeled”. For the same compound, in data set [3], the “PET visualization of tau pathologies of PS19 mice” value is “successfully visualized in vivo”. The “radiolabeling of fibrous aggregate pathologies, mouse brain stems” value in data set [6] is recorded as “strongly radio-labeled”.

For `[11CH3]Nc1ccc(/C=C/C=C/c2nc3ccc(O)cc3s2)cn1` [[^11C]PBB3, 2-((1E,3E)-4-(6-([^11C]methylamino)pyridine-3-yl)buta-1,3-dienyl)benz[d]thiazole-6-ol], in data set [5], the “radiolabeling of tau inclusions in brain stem and spinal cord of PS19 mice” value is listed as “radio-labeled”. For the same compound, the “selectivity of radiolabeling of tau inclusions” value in data set [5] (compared with [^11C]PBB2) is “more selectively”. For the same compound, the “PET visualization of tau pathologies of PS19 mice” value in data set [3] was “successfully visualized in vivo”. Besides, the “time of maximum brain stem to striatum ratio” value in data set [3] (PS19 mice) was “approximately 70 minutes”. The “blood brain barrier passage” value in data set [3] (after intravenous injection) is “passed the blood brain barrier quickly”. Further, the “signal in brain stems of 12-month-old PS19 mice” value in data set [3] (imaging period 90 minutes, significantly different from WT) is on record as “maintained over the imaging period”. In addition, the “half-life of removal of unbound and non-specifically bound compound from the brains” value in data set [3] (intravenous injection) is “approximately 10 minutes”. In data set [3] (over 45 to 90 minutes, 12-month-old mice), the “increase of average BS-to-ST ratio, PS19 versus WT mice” value amounted to 40%. The “binding in presence of non-radioactive ligand” value in data set [6] (non-radioactive PPB3 (10 μM), FIG. 6A, PS19 and AD sections) is “blocked”. The “radiolabeling of fibrous aggregate pathologies, mouse brain stems” value in data set [6] is “strongly radio-labeled”.

On to “(E,E)-1-fluoro-2,5-bis(3-hydroxycarbonyl-4-hydroxy)styrylbenzene”, for which, in data set [1] (caudal vein, large amount of administration necessary (10 mg/kg FSB)), the “ex vivo labeling of tau accumulations in PS19 mice” value is recorded as “found to bind to tau accumulations in the PS19 mice”.
